The values that follow come from US20250129135A1, “Multi-Agonist and Use Thereof” (priority 2021, published 2025).

Chains of the proteins cited; added tags and fusions are not shown. Residues count along the entry.
UniProt P47871, 26-477: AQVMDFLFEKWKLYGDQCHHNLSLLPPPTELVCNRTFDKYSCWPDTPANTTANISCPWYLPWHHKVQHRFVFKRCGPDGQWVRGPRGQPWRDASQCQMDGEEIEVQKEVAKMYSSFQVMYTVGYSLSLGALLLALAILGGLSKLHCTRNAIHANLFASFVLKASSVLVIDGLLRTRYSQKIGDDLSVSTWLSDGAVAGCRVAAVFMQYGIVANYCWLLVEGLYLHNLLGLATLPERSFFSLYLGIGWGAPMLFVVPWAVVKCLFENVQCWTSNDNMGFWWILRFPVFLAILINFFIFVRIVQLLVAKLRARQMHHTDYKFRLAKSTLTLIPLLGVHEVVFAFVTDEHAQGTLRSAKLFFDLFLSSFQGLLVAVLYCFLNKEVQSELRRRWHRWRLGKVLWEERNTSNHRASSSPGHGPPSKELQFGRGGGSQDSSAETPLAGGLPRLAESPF
UniProt P43220, 24-463: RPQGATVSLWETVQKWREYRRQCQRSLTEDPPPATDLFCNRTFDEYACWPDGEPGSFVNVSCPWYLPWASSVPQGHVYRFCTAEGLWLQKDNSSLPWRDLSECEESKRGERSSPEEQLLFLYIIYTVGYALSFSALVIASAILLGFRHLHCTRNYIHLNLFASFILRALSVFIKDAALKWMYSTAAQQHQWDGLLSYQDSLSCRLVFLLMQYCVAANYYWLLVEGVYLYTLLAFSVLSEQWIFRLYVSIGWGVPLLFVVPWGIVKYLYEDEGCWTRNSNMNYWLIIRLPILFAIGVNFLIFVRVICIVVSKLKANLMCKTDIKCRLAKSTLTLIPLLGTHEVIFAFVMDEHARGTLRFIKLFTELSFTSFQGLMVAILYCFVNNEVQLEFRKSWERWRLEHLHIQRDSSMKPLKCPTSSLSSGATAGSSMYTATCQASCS

The test system of one experiment is 3T3-L1 adipocytes. The note with it: for EC50: read-out: EC50 on mouse 3T3-L1 adipocyte, cAMP, at least 3 independent tests; for Rel. A (Relative Activity) on 3T3-L1 adipocyte: relative to GIP. As for the experimental part: Mouse 3T3-L1 precursor adipocytes can be induced to differentiate into mature adipocytes. […] After the cells became full and contacted with each other, DMEM differentiation medium containing 20% FBS, 0.5 mM IBMX, 0.4 ug/mL dexamethasone, and 5 ug/mL insulin was used to induce differentiation of 3T3-L1 adipocyte. After 5 days of induction and cultivation, DMEM medium containing […], 4 ug/ml insulin, and 10 uM rosiglitazone was used to continue induction and cultivation for 3 days. Then, DMEM medium containing 10% FBS was used to continue cultivation for 2-3 days to induce mature 3T3-L1 adipocytes.
The cAMP level produced by the compound on 3T3-L1 adipocytes was determined in this experiment. The tested compound solution was diluted step by step according to a concentration gradient of 3 times, to obtain a total of 10 series of concentration solutions. The solutions were added to induced mature 3T3-L1 adipocytes and incubated at room temperature for 60 minutes. 10 μL detection reagent in the kit was added to each well after drug incubation, and incubated at room temperature for another 60 minutes. […] GraphPad Prism 5 plotting software was used to create compound concentration-effect curves and calculation was performed.

The subject of experiment [1] is human primary liver cells. Format: cell-based. Particulars: for EC50: cAMP, at least 3 independent tests, read-out: EC50 on human primary liver cells; for Rel. A (Relative Activity) on human primary liver cells: relative to GCG. The protocol:
The cAMP levels produced by compounds on human primary liver cells were determined in this experiment. Human primary liver cells were purchased from Lonza (cell product number HUCPG).
Frozen human primary liver cells were placed in a 37° C. constant temperature water bath for rapid thawing and recovery. The cell solution was transferred to 10 ml of HBSS for resuspension, and centrifuged at 1000 rpm for 5 minutes at room temperature.
10 μL cell suspension was added to each well in the 384 well plate. […] Using the ECHO liquid transfer system, 100 nL of the prepared compound solution was added to the corresponding cell suspensions in the 384 well plate, rotated and shaken at 1000 rpm for 1 minute to mix evenly, and then incubated at room temperature for 60 minutes. 10 μL of detection reagent was added to each well after drug incubation was completed, and incubation was performed for 60 minutes.

The target of another experiment is T1, Human GCG R (Homo sapiens, UniProt P47871).
T1 construct: expressed in transfected cells; host or cells: HEK-293
The experiment in a line: cAMP (HTRF) activity in HEK-293 cells stably overexpressing human GCG receptor. The note with it: for Human GCG R Rel. A (Relative Activity): EC50 of human GCG / EC50 of compound. Format: cell-based. As for the experimental part: (§1) By measuring the cAMP signal response levels of the aforementioned cells, the agonistic activity of individual compound towards the corresponding receptor was determined. The intracellular cAMP content was measured using reagent kit available from Cisbio Corp. based on HTRF (homogeneous time-resolved fluorescence) technology.
(§2) The cell fluid was transferred to 10 ml of HBSS for resuspension, and centrifuged at 1000 rpm for 5 minutes at room temperature.
(§3) 10 μL cell suspension was added to each well in the 384 well plate. […] Using the ECHO liquid transfer system, 100 nL of the prepared compound solution was added to the corresponding cell suspensions in the 384 well plate, rotated and shaken at 1000 rpm for 1 minute to mix evenly, and then incubated at room temperature for 60 minutes. 10 μL of detection reagent was added to each well after drug incubation was completed, and incubation was performed in the kit at room temperature for 60 minutes. […] GraphPad Prism 5 plotting software was used to create compound concentration response curves and EC50 (nM) values was calculated.

A further experiment addresses Human GLP-1R (Homo sapiens, UniProt P43220). In words: cAMP (HTRF) activity in HEK-293 cells stably overexpressing human GLP-1 receptor. Format: cell-based. Particulars: for Human GLP-1R Rel. A (Relative Activity): EC50 of human GLP-1 (7-37) / EC50 of compound. More on the design: expressed in transfected cells; host or cells: HEK-293. As for the experimental part:
as §1, §2, §3

Another experiment concerns RIN-m5F cells. Format: cell-based, rat. Particulars: for EC50: cAMP, at least 3 independent tests, read-out: EC50 on RIN-m5F rat pancreatic islet tumor cells; for Rel. A (Relative Activity) on RIN-m5F: relative to GLP-1(7-37). As for the experimental part: This experiment measured the cAMP level produced by the compound on RIN-mF cells.
Frozen […] cells were placed in a 37° C. constant temperature water bath for rapid thawing and recovery. The cell solution was transferred to 10 ml of HBSS for resuspension, and centrifuged at 1000 rpm for 5 minutes at room temperature.
10 μL cell suspension was added to each well in the 384 well plate. […] Using the ECHO liquid transfer system, 100 nL of the prepared compound solution was added to the corresponding cell suspensions in the 384 well plate, rotated and shaken at 1000 rpm for 1 minute to mix evenly, and then incubated at room temperature for 60 minutes. 10 μL of detection reagent was added to each wells after drug incubation was completed, and incubation was performed for 60 minutes.

The target in a further experiment is T2, Human GIP R (Homo sapiens, UniProt P48546).
T2 construct: expressed in transfected cells; host or cells: CHO
T2 sequence (P48546 22-466): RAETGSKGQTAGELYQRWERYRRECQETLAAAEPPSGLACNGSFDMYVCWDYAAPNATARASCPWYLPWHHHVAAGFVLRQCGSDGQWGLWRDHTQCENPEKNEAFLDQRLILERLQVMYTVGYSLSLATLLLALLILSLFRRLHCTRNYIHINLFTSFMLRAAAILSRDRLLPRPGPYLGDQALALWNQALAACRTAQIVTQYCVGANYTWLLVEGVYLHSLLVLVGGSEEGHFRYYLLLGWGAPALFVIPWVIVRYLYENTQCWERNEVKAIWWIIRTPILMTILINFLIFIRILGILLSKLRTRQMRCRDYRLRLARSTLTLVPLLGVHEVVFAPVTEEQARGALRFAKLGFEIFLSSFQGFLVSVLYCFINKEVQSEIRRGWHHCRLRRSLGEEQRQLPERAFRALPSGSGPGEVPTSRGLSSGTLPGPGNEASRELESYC
In words: cAMP (HTRF) activity in CHO cells stably overexpressing GIP receptor. Format: cell-based. The note with it: for Human GIP R Rel. A (Relative Activity): EC50 of human GIP / EC50 of compound. The protocol: as §1, §2, §3

With `CC[C@H](C)[C@H](NC(=O)[C@H](Cc1ccccc1)NC(=O)[C@H](C)NC(=O)C(C)(C)NC(=O)[C@H](CCC(N)=O)NC(=O)[C@H](C)NC(=O)[C@H](CCCCNC(=O)COCCOCCNC(=O)COCCOCCNC(=O)CC[C@H](NC(=O)CCCCCCCCCCCCCCCCCCC(=O)O)C(=O)O)NC(=O)[C@H](CCCCN)NC(=O)[C@H](CC(=O)O)NC(=O)[C@H](CC(C)C)NC(=O)[C@H](Cc1ccccc1)NC(=O)[C@@H](NC(=O)[C@H](CO)NC(=O)[C@H](Cc1ccc(O)cc1)NC(=O)[C@H](CC(=O)O)NC(=O)[C@H](CO)NC(=O)[C@@H](NC(=O)[C@](C)(Cc1ccccc1F)NC(=O)[C@@H](NC(=O)CNC(=O)[C@H](CCC(N)=O)NC(=O)C(C)(C)NC(=O)[C@@H](N)Cc1ccc(O)cc1)[C@@H](C)O)[C@@H](C)O)[C@@H](C)CC)C(=O)N[C@@H](CCC(=O)O)C(=O)N[C@@H](Cc1ccccc1)C(=O)N[C@@H](CC(C)C)C(=O)N[C@@H](CC(C)C)C(=O)N[C@@H](CCC(=O)O)C(=O)NCC(=O)NCC(=O)N1CCC[C@H]1C(=O)N[C@@H](CO)C(=O)N[C@@H](CO)C(=O)NCC(=O)N[C@@H](C)C(=O)N1CCC[C@H]1C(=O)N1CCC[C@H]1C(=O)NC1(C(=O)N[C@@H](CO)C(N)=O)CC1` [Compound 5], in the experiment with 3T3-L1 adipocytes, the EC50 was 3.75 nM and the “Rel. A (Relative Activity) on 3T3-L1 adipocyte” value is given as 101.47%. Moreover, in experiment [1], the EC50 is 0.649 nM and the “Rel. A (Relative Activity) on human primary liver cells” value was found to be 599.54%. In addition, at Human GCG R, the “Human GCG R Rel. A (Relative Activity)” value came to 81.43%. Further, at Human GLP-1R, the response was half-maximal at 0.022 nM (EC50) and the “Human GLP-1R Rel. A (Relative Activity)” value is 200.00%. Further, in the experiment on RIN-m5F cells, the EC50 is 0.929 nM and the “Rel. A (Relative Activity) on RIN-m5F” value came out at 111.09%. Further, the “Human GIP R Rel. A (Relative Activity)” value on Human GIP R came out at 369.39%.

For the compound `CC[C@H](C)[C@H](NC(=O)[C@H](Cc1ccccc1)NC(=O)[C@H](C)NC(=O)C(C)(C)NC(=O)[C@H](CCC(N)=O)NC(=O)[C@H](C)NC(=O)[C@H](CCCCNC(=O)COCCOCCNC(=O)COCCOCCNC(=O)CC[C@H](NC(=O)CCCCCCCCCCCCCCCCCCC(=O)O)C(=O)O)NC(=O)[C@H](CCCCN)NC(=O)[C@H](CC(=O)O)NC(=O)[C@H](CC(C)C)NC(=O)[C@](C)(CC(C)C)NC(=O)[C@@H](NC(=O)[C@H](CO)NC(=O)[C@H](Cc1ccc(O)cc1)NC(=O)[C@H](CC(=O)O)NC(=O)[C@H](CO)NC(=O)[C@@H](NC(=O)[C@](C)(Cc1ccccc1)NC(=O)[C@@H](NC(=O)CNC(=O)[C@H](CCC(N)=O)NC(=O)C(C)(C)NC(=O)[C@@H](N)Cc1ccc(O)cc1)[C@@H](C)O)[C@@H](C)O)[C@@H](C)CC)C(=O)N[C@@H](CCC(=O)O)C(=O)N[C@@H](Cc1ccc(O)cc1)C(=O)N[C@@H](CC(C)C)C(=O)N[C@@H](CC(C)C)C(=O)N[C@@H](CCC(=O)O)C(=O)N[C@H](C(=O)NCC(=O)N1CCC[C@H]1C(=O)N[C@@H](CO)C(=O)N[C@@H](CO)C(=O)NCC(=O)NC(C)(C)C(=O)N1CCC[C@H]1C(=O)N1CCC[C@H]1C(=O)N1CCC[C@H]1C(=O)N[C@@H](CO)C(N)=O)[C@@H](C)O` [Compound 7], in the experiment on 3T3-L1 adipocytes, the EC50 came to 4.3 nM and the “Rel. A (Relative Activity) on 3T3-L1 adipocyte” value was found to be 88.44%. Besides, in experiment [1], the EC50 was found to be 1.95 nM and the “Rel. A (Relative Activity) on human primary liver cells” value is reported as 199.64%. Also, at Human GCG R, a half-maximal response (EC50) required 0.058 nM and the “Human GCG R Rel. A (Relative Activity)” value is 98.28%. On Human GLP-1R, it took 0.01 nM to reach a half-maximal effect (EC50) and the “Human GLP-1R Rel. A (Relative Activity)” value is on record as 440.00%. For the same compound, in the experiment on RIN-m5F cells, the EC50 came out at 1.34 nM and the “Rel. A (Relative Activity) on RIN-m5F” value came out at 76.79%. Besides, on Human GIP R, the EC50 was determined as 0.013 nM and the “Human GIP R Rel. A (Relative Activity)” value came out at 1392.31%.

As to `CC[C@H](C)[C@H](NC(=O)[C@H](Cc1ccccc1)NC(=O)[C@H](C)NC(=O)C(C)(C)NC(=O)[C@H](CCC(N)=O)NC(=O)[C@H](C)NC(=O)[C@H](CCCCNC(=O)COCCOCCNC(=O)COCCOCCNC(=O)CC[C@H](NC(=O)CCCCCCCCCCCCCCCCCCC(=O)O)C(=O)O)NC(=O)[C@H](CCCCN)NC(=O)[C@H](CC(=O)O)NC(=O)[C@H](CC(C)C)NC(=O)[C@](C)(CC(C)C)NC(=O)[C@@H](NC(=O)[C@H](CO)NC(=O)[C@H](Cc1ccc(O)cc1)NC(=O)[C@H](CC(=O)O)NC(=O)[C@H](CO)NC(=O)[C@@H](NC(=O)[C@](C)(Cc1ccccc1)NC(=O)[C@@H](NC(=O)CNC(=O)[C@H](CCC(N)=O)NC(=O)C(C)(C)NC(=O)[C@@H](N)Cc1ccc(O)cc1)[C@@H](C)O)[C@@H](C)O)[C@@H](C)CC)C(=O)N[C@@H](CCC(=O)O)C(=O)N[C@@H](Cc1ccc(O)cc1)C(=O)N[C@@H](CC(C)C)C(=O)N[C@@H](CC(C)C)C(=O)N[C@@H](CCC(=O)O)C(=O)N[C@H](C(=O)NCC(=O)N1CCC[C@H]1C(=O)N[C@@H](CO)C(=O)N[C@@H](CO)C(=O)NCC(=O)N[C@@H](CCC(N)=O)C(=O)N1CCC[C@H]1C(=O)N1CCC[C@H]1C(=O)N1CCC[C@H]1C(=O)N[C@@H](CO)C(N)=O)[C@@H](C)O` [Compound 8], in the experiment with 3T3-L1 adipocytes, the EC50 came out at 3.66 nM and the “Rel. A (Relative Activity) on 3T3-L1 adipocyte” value was 103.88%. Also, in experiment [1], the EC50 was found to be 0.995 nM and the “Rel. A (Relative Activity) on human primary liver cells” value is on record as 391.06%. For the same compound, on Human GCG R, the EC50 is 0.071 nM and the “Human GCG R Rel. A (Relative Activity)” value is given as 80.28%. The “Human GLP-1R Rel. A (Relative Activity)” value on Human GLP-1R is 151.72%. Further, in the experiment on RIN-m5F cells, the EC50 is 0.771 nM and the “Rel. A (Relative Activity) on RIN-m5F” value is recorded as 133.85%. The “Human GIP R Rel. A (Relative Activity)” value on Human GIP R is listed as 1508.33%.
